Data as given in patent US5073563A, “Alkoxycoumarins substituted by a heterocyclic radical, their preparation and therapeutic agents containing these compounds” (BASF Aktiengesellschaft, priority 1988, dated 1991).

Protein sequences, listed by entry. Tags and fused reporters are not part of them.
UniProt P19643, whole entry: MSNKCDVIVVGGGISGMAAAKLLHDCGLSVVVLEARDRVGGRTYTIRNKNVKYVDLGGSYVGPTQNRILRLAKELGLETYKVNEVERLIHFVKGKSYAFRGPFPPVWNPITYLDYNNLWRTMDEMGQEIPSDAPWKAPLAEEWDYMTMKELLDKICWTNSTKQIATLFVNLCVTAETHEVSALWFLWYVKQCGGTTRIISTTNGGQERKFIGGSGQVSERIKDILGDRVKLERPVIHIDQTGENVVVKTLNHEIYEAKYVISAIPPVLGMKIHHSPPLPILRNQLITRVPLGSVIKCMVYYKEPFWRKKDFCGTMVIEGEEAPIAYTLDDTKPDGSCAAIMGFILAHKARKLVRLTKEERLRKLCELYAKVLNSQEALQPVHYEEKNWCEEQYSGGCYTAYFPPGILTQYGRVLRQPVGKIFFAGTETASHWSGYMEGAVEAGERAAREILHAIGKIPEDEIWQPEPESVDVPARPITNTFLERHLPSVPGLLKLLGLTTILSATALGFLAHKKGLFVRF

Molecular target: T1, MAO B (Rattus norvegicus, UniProt P19643)
T1 construct: determined in dilute rat brain homogenate; from tissue; host or cells: rat brain homogenate
Experiment: MAO B inhibition in dilute rat brain homogenate (14C substrate, 20 min at 37° C)
Format: biochemical
Conditions: quotient of IC50 MAO A and IC50 MAO B (selectivity for MAO B)

IC50 ratio MAO A / MAO B: > 450
Compound: NCCNC(=O)c1ccc(Cl)cn1 [Ro 19-6327, reference compound]
